Results as given in patent publication US5446147A (Trustees of the University of Pennsylvania, priority 1992, dated 1995).

Sequences of proteins named here, by UniProt entry; tags and fusion partners are left off.
UniProt P61169, whole entry: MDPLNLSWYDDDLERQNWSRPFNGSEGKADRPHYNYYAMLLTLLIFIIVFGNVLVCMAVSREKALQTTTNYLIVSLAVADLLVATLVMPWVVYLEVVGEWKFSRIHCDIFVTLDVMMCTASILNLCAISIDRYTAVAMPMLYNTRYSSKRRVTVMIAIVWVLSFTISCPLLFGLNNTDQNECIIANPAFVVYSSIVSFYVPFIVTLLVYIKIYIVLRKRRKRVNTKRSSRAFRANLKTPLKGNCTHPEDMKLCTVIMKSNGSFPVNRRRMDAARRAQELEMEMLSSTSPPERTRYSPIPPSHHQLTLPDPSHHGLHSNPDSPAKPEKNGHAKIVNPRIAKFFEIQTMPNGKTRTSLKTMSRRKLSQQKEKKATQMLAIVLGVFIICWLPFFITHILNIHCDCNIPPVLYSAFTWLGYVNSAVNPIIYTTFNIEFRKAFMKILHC

What was measured:
[1] = molecular target: T1, dopamine D2 receptor (Rat Striatal Membranes) (Rattus norvegicus, UniProt P61169); test: Competition for ^125 I-FIDA-2 binding to rat striatal membranes
T1 construct: Rat tissue homogenates were prepared as described previously; from tissue; host or cells: rat striatal membranes (tissue homogenate)
Description: (§1) Rat tissue homogenates were prepared as described previously. Murphy, R. A., et al., J. Med. Chem. 33, 171-178 (1990). The binding assays were performed by incubating 50 μL of tissue preparations containing 40-60 μg of protein with appropriate amounts of ^125 I-labeled ligand and competitors in a total volume of 0.2 mL of the assay buffer. After an incubation period of 15 min at 37° C. (with stirring), the samples were rapidly filtered in a cell harvester (Brandel M-24R) under vacuum through Whatman GF/B glass-fiber filters pretreated with […] protamine base and washed with 3×5 mL of cold (4° C.) 50 mM Tris-HCI buffer, pH 7.4. The nonspecific binding was obtained in the presence of 10 μM (+)butaclamol. The filters were counted in a γ counter (Beckman 5500) at an efficiency of 70%. Both Scatchard and competition experiments were analyzed with the iterative nonlinear least squares curve-fitting program LIGAND.

[2] = molecular target: T1, dopamine D2 receptor (Rat Striatal Membranes); test: Competition for ^125 I-FIDA-1 binding to rat striatal membranes
Description: as §1

Compound: NCCc1c[nH]c2ccc(O)cc12 [Compound 5-HT]
- Ki [1]: > 3 µM
- Ki [2]: > 5 µM
